Permeability data for macrocyclic peptides

Values of Kelly et al. 2021, doi:10.1021/jacs.0c06115, as listed in CycPeptMPDB.

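Conditions beyond the assay type are not listed; see the original paper. Other peptides of the study may be missing here. Entries at the database's floor value (log10 P of -10) are not listed.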

PAMPA is the parallel artificial membrane permeability assay, which has no cells and reads passive diffusion.
P is given in units of 10^-6 cm/s (from log10 values with two decimals); larger means faster passage.

The entry for CC(=O)N1CCC[C@H]1C(=O)N(C)[C@H](CC(C)C)C(=O)N[C@@H]1C(=O)N(C)[C@@H](CC(C)C)C(=O)N[C@@H](CC(C)C)C(=O)N(C)[C@H](CC(C)C)C(=O)N[C@@H](C)C(=O)N[C@@H](CC(C)C)C(=O)N2CCC[C@H]2C(=O)O[C@@H]1C lists PAMPA 4.8 × 10^-6 cm/s.
The entry for CC(=O)N1CCC[C@H]1C(=O)N(C)[C@@H](CC(C)C)C(=O)N[C@@H]1C(=O)N[C@@H](CC(C)C)C(=O)N(C)[C@@H](CC(C)C)C(=O)N(C)[C@H](CC(C)C)C(=O)N(C)[C@@H](C)C(=O)N[C@H](CC(C)C)C(=O)N2CCC[C@@H]2C(=O)O[C@@H]1C lists PAMPA 0.79 × 10^-6 cm/s.
The entry for CC(=O)N1CCC[C@H]1C(=O)N(C)[C@@H](CC(C)C)C(=O)N[C@@H]1C(=O)N[C@@H](CC(C)C)C(=O)N[C@@H](CC(C)C)C(=O)N[C@H](CC(C)C)C(=O)N(C)[C@@H](C)C(=O)N[C@@H](CC(C)C)C(=O)N2CCC[C@H]2C(=O)O[C@@H]1C lists PAMPA 3 × 10^-6 cm/s.
The entry for CC(=O)N1CCC[C@@H]1C(=O)N(C)[C@H](CC(C)C)C(=O)N[C@@H]1C(=O)N(C)[C@H](CC(C)C)C(=O)N(C)[C@H](CC(C)C)C(=O)N(C)[C@@H](CC(C)C)C(=O)N(C)[C@@H](C)C(=O)N[C@@H](CC(C)C)C(=O)N2CCC[C@H]2C(=O)O[C@@H]1C lists PAMPA 1.9 × 10^-6 cm/s.
The entry for CC(=O)N1CCC[C@H]1C(=O)N(C)[C@H](CC(C)C)C(=O)N[C@@H]1C(=O)N[C@H](CC(C)C)C(=O)N(C)[C@H](CC(C)C)C(=O)N[C@@H](CC(C)C)C(=O)N(C)[C@@H](C)C(=O)N[C@@H](CC(C)C)C(=O)N2CCC[C@@H]2C(=O)O[C@@H]1C lists PAMPA 4 × 10^-6 cm/s.
The entry for CC(=O)N1CCC[C@H]1C(=O)N(C)[C@H](CC(C)C)C(=O)N[C@@H]1C(=O)N[C@@H](CC(C)C)C(=O)N[C@H](CC(C)C)C(=O)N(C)[C@@H](CC(C)C)C(=O)N[C@@H](C)C(=O)N[C@H](CC(C)C)C(=O)N2CCC[C@H]2C(=O)O[C@@H]1C lists PAMPA 1.6 × 10^-6 cm/s.
The entry for CC(=O)N1CCC[C@@H]1C(=O)N(C)[C@H](CC(C)C)C(=O)N[C@@H]1C(=O)N[C@H](CC(C)C)C(=O)N[C@H](CC(C)C)C(=O)N(C)[C@H](CC(C)C)C(=O)N[C@@H](C)C(=O)N[C@@H](CC(C)C)C(=O)N2CCC[C@H]2C(=O)O[C@@H]1C lists PAMPA 0.13 × 10^-6 cm/s.
The entry for CC(=O)N1CCC[C@H]1C(=O)N(C)[C@@H](CC(C)C)C(=O)N[C@@H]1C(=O)N(C)[C@@H](CC(C)C)C(=O)N(C)[C@H](CC(C)C)C(=O)N(C)[C@@H](CC(C)C)C(=O)N(C)[C@H](C)C(=O)N[C@@H](CC(C)C)C(=O)N2CCC[C@@H]2C(=O)O[C@@H]1C lists PAMPA 3.1 × 10^-6 cm/s.
The entry for CC(=O)N1CCC[C@H]1C(=O)N(C)[C@H](CC(C)C)C(=O)N[C@@H]1C(=O)N[C@H](CC(C)C)C(=O)N[C@H](CC(C)C)C(=O)N[C@H](CC(C)C)C(=O)N(C)[C@@H](C)C(=O)N[C@H](CC(C)C)C(=O)N2CCC[C@@H]2C(=O)O[C@@H]1C lists PAMPA 0.98 × 10^-6 cm/s.
The entry for CC(=O)N1CCC[C@@H]1C(=O)N(C)[C@@H](CC(C)C)C(=O)N[C@@H]1C(=O)N(C)[C@H](CC(C)C)C(=O)N[C@@H](CC(C)C)C(=O)N(C)[C@@H](CC(C)C)C(=O)N(C)[C@H](C)C(=O)N[C@@H](CC(C)C)C(=O)N2CCC[C@@H]2C(=O)O[C@@H]1C lists PAMPA 6.8 × 10^-6 cm/s.
The entry for CC(=O)N1CCC[C@H]1C(=O)N(C)[C@H](CC(C)C)C(=O)N[C@@H]1C(=O)N(C)[C@H](CC(C)C)C(=O)N(C)[C@H](CC(C)C)C(=O)N[C@H](CC(C)C)C(=O)N(C)[C@H](C)C(=O)N[C@@H](CC(C)C)C(=O)N2CCC[C@@H]2C(=O)O[C@@H]1C lists PAMPA 4.4 × 10^-6 cm/s.
The entry for CC(=O)N1CCC[C@H]1C(=O)N(C)[C@@H](CC(C)C)C(=O)N[C@@H]1C(=O)N(C)[C@@H](CC(C)C)C(=O)N[C@@H](CC(C)C)C(=O)N[C@@H](CC(C)C)C(=O)N[C@@H](C)C(=O)N[C@H](CC(C)C)C(=O)N2CCC[C@@H]2C(=O)O[C@@H]1C lists PAMPA 0.001 × 10^-6 cm/s.
The entry for CC(=O)N1CCC[C@@H]1C(=O)N(C)[C@@H](CC(C)C)C(=O)N[C@@H]1C(=O)N(C)[C@H](CC(C)C)C(=O)N(C)[C@H](CC(C)C)C(=O)N[C@H](CC(C)C)C(=O)N(C)[C@H](C)C(=O)N[C@H](CC(C)C)C(=O)N2CCC[C@@H]2C(=O)O[C@@H]1C lists PAMPA 2.2 × 10^-6 cm/s.
The entry for CC(=O)N1CCC[C@H]1C(=O)N(C)[C@@H](CC(C)C)C(=O)N[C@@H]1C(=O)N[C@H](CC(C)C)C(=O)N[C@H](CC(C)C)C(=O)N[C@@H](CC(C)C)C(=O)N[C@@H](C)C(=O)N[C@@H](CC(C)C)C(=O)N2CCC[C@H]2C(=O)O[C@@H]1C lists PAMPA 0.14 × 10^-6 cm/s.
The entry for CC(=O)N1CCC[C@@H]1C(=O)N(C)[C@@H](CC(C)C)C(=O)N[C@@H]1C(=O)N(C)[C@H](CC(C)C)C(=O)N(C)[C@@H](CC(C)C)C(=O)N[C@H](CC(C)C)C(=O)N(C)[C@H](C)C(=O)N[C@@H](CC(C)C)C(=O)N2CCC[C@@H]2C(=O)O[C@@H]1C lists PAMPA 9.3 × 10^-6 cm/s.
The entry for CC(=O)N1CCC[C@@H]1C(=O)N(C)[C@@H](CC(C)C)C(=O)N[C@@H]1C(=O)N[C@@H](CC(C)C)C(=O)N[C@@H](CC(C)C)C(=O)N[C@H](CC(C)C)C(=O)N[C@H](C)C(=O)N[C@H](CC(C)C)C(=O)N2CCC[C@@H]2C(=O)O[C@@H]1C lists PAMPA 0.3 × 10^-6 cm/s.
The entry for CC(=O)N1CCC[C@@H]1C(=O)N(C)[C@@H](CC(C)C)C(=O)N[C@@H]1C(=O)N[C@@H](CC(C)C)C(=O)N[C@@H](CC(C)C)C(=O)N(C)[C@@H](CC(C)C)C(=O)N(C)[C@@H](C)C(=O)N[C@H](CC(C)C)C(=O)N2CCC[C@H]2C(=O)O[C@@H]1C lists PAMPA 0.29 × 10^-6 cm/s.
The entry for CC(=O)N1CCC[C@H]1C(=O)N(C)[C@@H](CC(C)C)C(=O)N[C@@H]1C(=O)N[C@H](CC(C)C)C(=O)N(C)[C@@H](CC(C)C)C(=O)N[C@@H](CC(C)C)C(=O)N(C)[C@@H](C)C(=O)N[C@@H](CC(C)C)C(=O)N2CCC[C@@H]2C(=O)O[C@@H]1C lists PAMPA 2.5 × 10^-6 cm/s.
The entry for CC(=O)N1CCC[C@H]1C(=O)N(C)[C@@H](CC(C)C)C(=O)N[C@@H]1C(=O)N(C)[C@H](CC(C)C)C(=O)N[C@@H](CC(C)C)C(=O)N(C)[C@@H](CC(C)C)C(=O)N(C)[C@@H](C)C(=O)N[C@H](CC(C)C)C(=O)N2CCC[C@H]2C(=O)O[C@@H]1C lists PAMPA 0.66 × 10^-6 cm/s.
The entry for CC(=O)N1CCC[C@H]1C(=O)N[C@@H]1C(=O)N(C)[C@H](CC(C)C)C(=O)N[C@@H](CC(C)C)C(=O)N[C@H](CC(C)C)C(=O)N(C)[C@@H](CC(C)C)C(=O)N[C@@H](C)C(=O)N[C@@H](CC(C)C)C(=O)N2CCC[C@@H]2C(=O)O[C@@H]1C lists PAMPA 2.3 × 10^-6 cm/s.
The entry for CC(=O)N1CCC[C@@H]1C(=O)N(C)[C@H](CC(C)C)C(=O)N[C@@H]1C(=O)N(C)[C@@H](CC(C)C)C(=O)N(C)[C@@H](CC(C)C)C(=O)N(C)[C@@H](CC(C)C)C(=O)N[C@@H](C)C(=O)N[C@H](CC(C)C)C(=O)N2CCC[C@H]2C(=O)O[C@@H]1C lists PAMPA 0.81 × 10^-6 cm/s.

Extract of 4 entries:

compound	PAMPA (10^-6 cm/s)
CC(=O)N1CCC[C@H]1C(=O)N(C)[C@H](CC(C)C)C(=O)N[C@@H]1C(=O)N[C@@H](CC(C)C)C(=O)N[C@H](CC(C)C)C(=O)N(C)[C@@H](CC(C)C)C(=O)N[C@@H](C)C(=O)N[C@H](CC(C)C)C(=O)N2CCC[C@H]2C(=O)O[C@@H]1C	1.6
CC(=O)N1CCC[C@@H]1C(=O)N(C)[C@@H](CC(C)C)C(=O)N[C@@H]1C(=O)N(C)[C@H](CC(C)C)C(=O)N(C)[C@H](CC(C)C)C(=O)N[C@H](CC(C)C)C(=O)N(C)[C@H](C)C(=O)N[C@H](CC(C)C)C(=O)N2CCC[C@@H]2C(=O)O[C@@H]1C	2.2
CC(=O)N1CCC[C@H]1C(=O)N(C)[C@@H](CC(C)C)C(=O)N[C@@H]1C(=O)N[C@H](CC(C)C)C(=O)N[C@H](CC(C)C)C(=O)N[C@@H](CC(C)C)C(=O)N[C@@H](C)C(=O)N[C@@H](CC(C)C)C(=O)N2CCC[C@H]2C(=O)O[C@@H]1C	0.14
CC(=O)N1CCC[C@@H]1C(=O)N(C)[C@@H](CC(C)C)C(=O)N[C@@H]1C(=O)N(C)[C@H](CC(C)C)C(=O)N[C@@H](CC(C)C)C(=O)N(C)[C@@H](CC(C)C)C(=O)N(C)[C@H](C)C(=O)N[C@@H](CC(C)C)C(=O)N2CCC[C@@H]2C(=O)O[C@@H]1C	6.8